This passage reports Km results from ChEMBL document CHEMBL1150452, “Kinetic characterization of a peptide inhibitor of trypsin isolated from a synthetic peptide combinatorial library” (Bioorg Med Chem Lett, 1995).

Substrate in data set [1]: CC[C@H](C)[C@H](NC(=O)[C@H](CCCCN)NC(=O)[C@H](C)NC(=O)CNC(=O)[C@H](Cc1ccc(O)cc1)NC(=O)[C@@H](N)Cc1ccc(O)cc1)C(=O)N[C@@H](C)C(=O)N[C@@H](CCCN=C(N)N)C(=O)N1CCC[C@@H]1C(=O)N[C@@H](CC(=O)O)C(=O)N[C@@H](CCCCN)C(=O)N[C@@H](CCSC)C(=O)O
Conditions: Bos taurus.

Substrate in data set [2]: CC[C@H](C)[C@H](NC(=O)[C@H](CCCN=C(N)N)NC(=O)[C@H](C)NC(=O)CNC(=O)[C@H](Cc1ccc(O)cc1)NC(=O)[C@@H](N)Cc1ccc(O)cc1)C(=O)N[C@@H](Cc1ccc(O)cc1)C(=O)N[C@@H](CCCN=C(N)N)C(=O)N1CCC[C@@H]1C(=O)N[C@@H](CC(=O)O)C(=O)N[C@@H](CCCCN)C(=O)N[C@@H](CCSC)C(=O)O
The conditions noted are these: Bos taurus.

One may read the Km as the concentration of substrate that gives half-maximal velocity.

B1: Serine protease 1 (Bos taurus), P00760 (protein)
chain: MKTFIFLALLGAAVAFPVDDDDKIVGGYTCGANTVPYQVSLNSGYHFCGGSLINSQWVVSAAHCYKSGIQVRLGEDNINVVEGNEQFISASKSIVHPSYNSNTLNNDIMLIKLKSAASLNSRVASISLPTSCASAGTQCLISGWGNTKSSGTSYPDVLKCLKAPILSDSSCKSAYPGQITSNMFCAGYLEGGKDSCQGDSGGPVVCSGKLQGIVSWGSGCAQKNKPGVYTKVCNYVSWIKQTIASN
As to B1, the Michaelis constant (Km) in data set [1] amounted to 86 mM; in data set [2], 18 mM.
